The experiment has as its target T1, Glucocorticoid receptor (Homo sapiens, UniProt P04150).
T1 sequence (P04150 whole entry): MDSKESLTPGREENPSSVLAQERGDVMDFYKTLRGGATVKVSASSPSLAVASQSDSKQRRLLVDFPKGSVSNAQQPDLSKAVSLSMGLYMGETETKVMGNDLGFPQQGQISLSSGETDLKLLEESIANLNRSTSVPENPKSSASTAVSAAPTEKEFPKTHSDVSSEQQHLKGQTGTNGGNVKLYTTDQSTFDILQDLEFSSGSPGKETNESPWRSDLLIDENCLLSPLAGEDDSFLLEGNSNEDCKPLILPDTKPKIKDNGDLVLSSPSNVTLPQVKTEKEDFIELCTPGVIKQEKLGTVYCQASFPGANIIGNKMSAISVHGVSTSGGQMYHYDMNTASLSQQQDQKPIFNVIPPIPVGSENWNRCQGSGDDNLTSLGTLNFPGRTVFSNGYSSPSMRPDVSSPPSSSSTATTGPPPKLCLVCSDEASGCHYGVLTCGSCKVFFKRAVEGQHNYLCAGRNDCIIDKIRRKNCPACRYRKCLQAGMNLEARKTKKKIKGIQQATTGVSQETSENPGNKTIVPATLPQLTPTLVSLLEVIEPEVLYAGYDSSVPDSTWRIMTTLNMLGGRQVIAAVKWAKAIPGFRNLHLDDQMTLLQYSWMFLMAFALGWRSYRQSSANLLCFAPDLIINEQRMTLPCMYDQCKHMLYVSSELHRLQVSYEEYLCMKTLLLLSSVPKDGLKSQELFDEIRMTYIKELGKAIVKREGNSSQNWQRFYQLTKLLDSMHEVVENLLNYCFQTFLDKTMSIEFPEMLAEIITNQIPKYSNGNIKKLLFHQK
The experiment can be described thus: Transcriptional repression in HepG2 cells expressing human glucocorticoid receptor. It is filed as functional, cell-based.

One may read the EC50 as the concentration giving half of the maximal effect. The compound `C=CCC1Oc2c(Br)cc(O)c(Cl)c2-c2ccc3c(c21)C(C)=CC(C)(C)N3` (configuration not stated) showed a 50% effective concentration (EC50) of 5 nM.
In the case of `C=CCC1Oc2ccc(F)c(OC)c2-c2ccc3c(c21)C(C)=CC(C)(C)N3` (configuration not stated) it was 81 nM.

For the origin of these results see ChEMBL document CHEMBL1144889 (J Med Chem, 2003).
